# Compound activity deposited in PubChem by several laboratories.
# Compounds with a hit are over-represented: about 4.2% of the library has one in this group of screens.
# MC4R antagonist: blocks human MC4R cAMP signaling. P32245. MC4R-expressing cells, MTII-stimulated cAMP, LANCE TR-FRET. inhibition, % at 6.5 µM. 360,000 compounds, 0.48% hits. AID 540295;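 active means inhibition above its plate's cutoff, the mean of tested wells on that plate plus 3 SD, cut at about 29% in these data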;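 further: 0% = Melanotan II alone and 100% = Melanotan II plus saturating MCL0020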
#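 Material: human MC4R-expressing U2OS cells. Probe or stimulus: Melanotan II challenge. Dosing: 6.5 µM single dose. Times: 30-min compound, 1-h challenge, 1-h detection, room temperature. Technique: TR-FRET with Eu-cAMP and labeled anti-cAMP, 671 nm. Replication: singlicate.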
# MC4R barr agon: activates human MC4R beta-arrestin recruitment; P32245; U2OS MC4R beta-arrestin complementation, luminescence; percent of melanotan II response, DMSO zero; activation, % at 8.9 µM; 360,000 compounds, 0.98% hits; AID 540308;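 active means activation above a per-plate cutoff, the mean activation of sample wells on that plate plus 3 SD, cut at about 8% in these data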
# HDAC3 inh: human HDAC3 inhibition; recombinant HDAC3, fluorogenic peptide/trypsin coupled, fluorescence; AID 2718; inhibition, % at 8.3 µM; 320,000 compounds, 0.15% hits; in the data active means inhibition above about 26%, passing the limit was not always enough
# NALP1 inh: blocks the NALP1 inflammasome reconstituted in yeast; 280,000 compounds, 0.61% hits; AID 2071; inhibition, % at 10 µM; S. cerevisiae NALP1/ASC/caspase-1 growth, X-gal OD620, 72 h; in the data active means inhibition mostly above about 24%, no sharp cut-off; inactive means mostly below about 32%
# ALR H2O2 inh: inhibitors of human sulfhydryl oxidase ALR. P55789. purified ALR, DTT oxidation, H2O2 HRP-luminol luminescence. inhibition, % (no concentration beside the values). hit rate 3.8% among 290,000;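 active means mean and each replicate at 75% or more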;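 further: stock transfer was 7.5 nL into about 7.5 µL; 0% = neutral wells and 100% = wells with inactivated enzyme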
# Yeast UUG start: modulators of yeast start codon fidelity, primary screen, whole organism, S. cerevisiae, single point, plate reader | AID 602363, 2012 | S. cerevisiae UUG-firefly luciferase reporter, luminescence/redox ratio | activity score, % at 18.7 µM | hit rate 0.13% among 350,000;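 active = replicate mean at a twofold rise or more, about +100% in these data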;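 also: firefly luciferase made from a UUG start codon reports start codon fidelity; reporter light over untreated wells divided by growth signal over untreated wells; some hits fall short of that in this replicate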
# * hit, by the source's call; . = no result.
1: CCOC(=O)Cn1c(=S)[nH]c2c(oc3ccc(Cl)cc32)c1=O
2: O=C(CCn1c(=O)oc2cc(Cl)ccc21)Nc1ccc(O)cc1
3: CC(C)Cn1c(/C=C/c2ccco2)nc2ccccc21
4: CN1C(=O)c2cc(NC(=O)c3ccc(F)c(F)c3)ccc2OC[C@H]2O[C@@H](CC(=O)O)CC[C@H]21
5: CCN(CC)c1ccc(N=C2C(=O)Nc3ccccc32)cc1
6: Cc1ccc(N=C2C(=O)Nc3ccccc32)cc1

screen / no.,1,2,3,4,5,6
MC4R antagonist,9,16,-1,.,2,13
MC4R barr agon,0,1,-2,.,-1,-1
HDAC3 inh,-6,1,5,.,4,6
NALP1 inh,0,15,48,.,10,-2
ALR H2O2 inh,96*,98*,97*,.,94*,47
Yeast UUG start,-20,-12,.,0,-18,-8

# Sorted by number of heavy atoms (descending): some entries from above
4: CN1C(=O)c2cc(NC(=O)c3ccc(F)c(F)c3)ccc2OC[C@H]2O[C@@H](CC(=O)O)CC[C@H]21
5: CCN(CC)c1ccc(N=C2C(=O)Nc3ccccc32)cc1
3: CC(C)Cn1c(/C=C/c2ccco2)nc2ccccc21
6: Cc1ccc(N=C2C(=O)Nc3ccccc32)cc1

screen / no.,4,5,3,6
MC4R antagonist,.,2,-1,13
MC4R barr agon,.,-1,-2,-1
HDAC3 inh,.,4,5,6
NALP1 inh,.,10,48,-2
ALR H2O2 inh,.,94*,97*,47
Yeast UUG start,0,-18,.,-8

# (next part)
7: COc1ccc2nc(C)cc(Sc3nc4ccccc4s3)c2c1
8: Cc1ccccc1NCc1ccc([N+](=O)[O-])s1
9: Cc1cccc(NCc2ccc([N+](=O)[O-])s2)c1
10: Cc1ccc(NCc2ccc([N+](=O)[O-])s2)cc1
11: C[C@H]1CN([C@@H](C)CO)C(=O)c2cccc(NS(=O)(=O)c3cn(C)cn3)c2O[C@H]1CN(C)Cc1ccc(-c2ccccc2)cc1
12: O=C(C[C@@H]1C[C@@H]2c3cc(NC(=O)C4CCC4)ccc3O[C@@H]2[C@H](CO)O1)NCc1ccccc1

screen / no.,7,8,9,10,11,12
MC4R antagonist,-5,-3,-2,4,.,.
MC4R barr agon,-2,-1,-1,-1,.,.
HDAC3 inh,4,-1,1,-1,.,.
NALP1 inh,16,-24,7,14,.,.
ALR H2O2 inh,99*,.,98*,98*,.,.
Yeast UUG start,-21,-18,-15,-5,-1,-8

13: CCOC(=O)/C(=C\c1ccc(Cl)cc1)c1nc2sc(C)c(C)c2c(=O)[nH]1
14: COc1ccc(-c2ccc3c(c2)[C@H]2[C@H](CCN2C(=O)Cc2ccccc2)[C@H](CO)N3C)cc1
15: Oc1ccc(/C=N/n2c(COc3ccccc3)n[nH]c2=S)cc1O
16: S=c1[nH]nc(COc2ccccc2)n1/N=C/C=C/c1ccco1
17: O=c1c2ccccc2nc(COc2ccccc2)n1/N=C/c1ccc(O)c(O)c1
18: O=C(Nn1c(COc2ccccc2)nc2ccccc2c1=O)C(Cl)(Cl)Cl

screen / no.,13,14,15,16,17,18
MC4R antagonist,16,.,10,4,16,-7
MC4R barr agon,-3,.,0,-2,3,0
HDAC3 inh,11,.,6,7,1,5
NALP1 inh,44*,.,-13,16,.,12
ALR H2O2 inh,9,.,100*,97*,98*,97*
Yeast UUG start,-9,-12,.,-15,-18,1

19: COc1ccc(NC(=O)N(C)C[C@@H]2OCCCC[C@@H](C)Oc3ccc(NC(=O)Nc4ccc(F)cc4)cc3C(=O)N([C@@H](C)CO)C[C@@H]2C)cc1
20: C[C@H](CO)N1C[C@H](C)[C@@H](CN(C)Cc2ccccc2)Oc2ccc(NC(=O)C3CCCCC3)cc2C1=O
21: O=C(N[C@H]1CC[C@H](CCNC(=O)C2CCCC2)O[C@@H]1CO)c1ccccn1
22: CCOc1ccc(-c2csc(NC(=O)CSC3=NC(=O)CN3C(C)=O)n2)c2ccccc12
23: CCOc1ccc(-c2csc(NC(=O)CSCC(=O)O)n2)c2ccccc12
24: CC(=O)N1CC(=O)N=C1SCC(=O)Nc1nc(C)c(-c2ccccc2)s1

screen / no.,19,20,21,22,23,24
MC4R antagonist,.,.,.,10,-4,3
MC4R barr agon,.,.,.,2,1,3
HDAC3 inh,.,.,.,-5,6,26*
NALP1 inh,.,.,.,10,36,4
ALR H2O2 inh,.,.,.,99*,44,98*
Yeast UUG start,-2,2,-3,-8,.,0

25: CO[C@H]1CN(C)C(=O)c2ccc(NC(=O)C3CC3)cc2OC[C@H](C)N(CC2CCCC2)C[C@H]1C
26: COCC#Cc1cnc2c(c1)C(=O)N([C@H](C)CO)C[C@@H](C)[C@H](CN(C)C(=O)c1cnccn1)O2
27: CC(C)C(=O)Nc1ccc2c(c1)C(=O)N(C)[C@H]1CC[C@@H](CC(=O)N[C@H](C)c3ccccc3)O[C@@H]1CO2
28: COc1cccc(NC(=O)COC(=O)Cc2ccc(Cl)cc2)c1
29: O=C(COc1ccc(Br)cc1)NCc1ccccn1
30: N#Cc1ccc(OCC(=O)NCCc2ccccn2)cc1

screen / no.,25,26,27,28,29,30
MC4R antagonist,.,.,.,1,-2,-2
MC4R barr agon,.,.,.,0,1,3
HDAC3 inh,.,.,.,0,.,-1
NALP1 inh,.,.,.,30*,6,36*
ALR H2O2 inh,.,.,.,.,-3,6
Yeast UUG start,16,-9,-3,3,-3,1

31: CCCNC(=O)C[C@@H]1CC[C@H]2[C@@H](COC[C@H](O)CN2Cc2ccc(Cl)c(Cl)c2)O1
32: CN(C)Cc1c(O)ccc2ccccc12
33: Oc1ccccc1Cc1c(O)ccc2ccccc12
34: Cc1noc(C)c1COC(=O)CCN1c2ccccc2Sc2ccccc21
35: CCOCCCNCC(=O)Nc1ccccc1N1CCOCC1
36: NC(=O)c1c(NC(=O)c2ccccc2C(=O)O)sc2c1CCCC2

screen / no.,31,32,33,34,35,36
MC4R antagonist,.,25,6,4,11,10
MC4R barr agon,.,2,3,-1,5,1
HDAC3 inh,.,-8,3,8,1,17
NALP1 inh,.,18,.,7,3,1
ALR H2O2 inh,.,11,91*,93*,97*,19
Yeast UUG start,13,.,-5,-7,-13,-2

37: COCCCNC(=O)c1c(NC(=O)c2cccs2)sc2c1CCCC2
38: COCCN(CCOC)S(=O)(=O)c1ccc(C(=O)Nc2sc3c(c2C(N)=O)CCCCC3)cc1
39: NC(=O)c1c(NC(=O)c2ccc(N3C(=O)CCC3=O)cc2)sc2c1CCCC2
40: COC(=O)c1c(NC(=O)c2ccc(N(C)S(=O)(=O)c3ccc(C)cc3)cc2)sc2c1CCCC2
41: NC(=O)c1c(NC(=O)c2ccccc2Cl)sc2c1CCC2
42: NC(=O)c1c(NC(=O)c2cccs2)sc2c1CCCCCC2

screen / no.,37,38,39,40,41,42
MC4R antagonist,10,16,8,1,23,-8
MC4R barr agon,3,-3,0,-1,-1,2
HDAC3 inh,-1,8,4,-6,-10,5
NALP1 inh,6,29,.,27,.,14
ALR H2O2 inh,86*,91*,93*,-28,91*,-9
Yeast UUG start,-7,.,-14,.,-2,-15

43: NC(=O)c1c(NC(=O)c2ccccc2F)sc2c1CCCC2
44: NC(=O)c1c(NC(=O)c2ccc(F)cc2Cl)sc2c1CCC2
45: NC(=O)c1c(NC(=O)CN2C(=O)NC(Cc3ccccc3)C2=O)sc2c1CCC2 (stereo not given)
46: CC1CCC2(CC1)NC(=O)N(CC(=O)Nc1sc3c(c1C(N)=O)CCC3)C2=O (stereo not given)
47: COc1ccc(CN2C[C@@H](O)COC[C@H]3O[C@H](CC(=O)NCCN4CCCC4)CC[C@@H]32)cc1
48: CCCC(=O)Nc1ccc2c(c1)C(=O)N(C)C[C@H](OC)[C@H](C)CN(Cc1ccccc1F)[C@H](C)CO2
49: Cc1ccc(C(=O)NNC(=S)NC(=O)c2ccccc2)cc1
50: O=C(NC(=S)NNC(=O)c1ccco1)c1ccccc1

screen / no.,43,44,45,46,47,48,49,50
MC4R antagonist,5,10,-14,6,.,.,-1,1
MC4R barr agon,2,-1,1,-3,.,.,0,0
HDAC3 inh,-1,-1,.,9,.,.,5,0
NALP1 inh,16,18,42*,11,.,.,.,6
ALR H2O2 inh,0,93*,.,1,.,.,29,88*
Yeast UUG start,-3,-7,-17,.,5,-2,.,-50
